ChEMBL document CHEMBL4627254, “Design and synthesis of (E)-1,2-diphenylethene-based EZH2 inhibitors” (Bioorg Med Chem Lett, 2020)

The chains behind the UniProt entries cited, without tags or fusion partners.
UniProt Q15910, whole entry: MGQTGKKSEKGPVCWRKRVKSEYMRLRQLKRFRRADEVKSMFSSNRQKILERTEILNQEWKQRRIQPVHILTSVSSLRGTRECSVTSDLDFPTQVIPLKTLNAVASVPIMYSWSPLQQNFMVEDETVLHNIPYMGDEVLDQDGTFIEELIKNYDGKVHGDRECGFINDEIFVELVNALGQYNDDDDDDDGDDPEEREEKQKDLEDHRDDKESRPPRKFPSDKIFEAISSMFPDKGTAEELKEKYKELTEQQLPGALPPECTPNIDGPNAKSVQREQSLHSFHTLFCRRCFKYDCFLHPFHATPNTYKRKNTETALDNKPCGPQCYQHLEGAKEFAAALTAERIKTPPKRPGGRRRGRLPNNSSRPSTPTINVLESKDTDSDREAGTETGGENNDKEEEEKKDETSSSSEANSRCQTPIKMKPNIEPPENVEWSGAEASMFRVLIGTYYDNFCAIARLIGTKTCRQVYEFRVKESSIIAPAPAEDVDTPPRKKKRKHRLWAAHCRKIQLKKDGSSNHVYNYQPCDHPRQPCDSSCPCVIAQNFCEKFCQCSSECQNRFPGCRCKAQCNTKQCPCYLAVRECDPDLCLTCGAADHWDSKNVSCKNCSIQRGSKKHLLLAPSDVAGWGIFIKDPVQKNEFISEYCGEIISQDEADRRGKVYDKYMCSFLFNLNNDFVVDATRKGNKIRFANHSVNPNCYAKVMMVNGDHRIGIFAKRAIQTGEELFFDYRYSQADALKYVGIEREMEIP

How the values were obtained:
[1] = target: T1, Histone-lysine N-methyltransferase EZH2 (Homo sapiens, UniProt Q15910); test: Inhibition of wild type EZH2 (unknown origin) by AlphaLISA assay
[2] = target: T1, Histone-lysine N-methyltransferase EZH2; test: Inhibition of wild type EZH2 (unknown origin) in presence of 1 uM SAM by AlphaLISA assay

CCN(c1cc(/C=C/c2ccc(/C=C/C(=O)OC)cc2)cc(C(=O)NCc2c3c(c(C)[nH]c2=O)CCCC3)c1C)C1CCOCC1
IC50 [1]: 620 nM

CCN(c1cc(/C=C/c2ccc(CN3C[C@@H](C)O[C@@H](C)C3)cc2)cc(C(=O)NCc2c(C)c3c([nH]c2=O)CCCC3)c1C)C1CCOCC1
IC50 [1]: > 200 nM

CCN(c1cc(/C=C/c2cccc(CN(C)C)c2)cc(C(=O)NCc2c3c(c(C)[nH]c2=O)CCCC3)c1C)C1CCOCC1
IC50 [1]: 22 nM
IC50 [2]: 22 nM

CCN(c1cc(/C=C/c2ccc(CN3CCN(C)CC3)cc2)cc(C(=O)NCc2c(C)c3c([nH]c2=O)CCCC3)c1C)C1CCOCC1
IC50 [1]: 143 nM

CCN(c1cc(/C=C/c2cccc(CN3CCOCC3)c2)cc(C(=O)NCc2c3c(c(C)[nH]c2=O)CCCC3)c1C)C1CCOCC1
IC50 [1]: 39 nM

CCN(c1cc(/C=C/c2ccc(CN3C[C@@H](C)O[C@@H](C)C3)c(F)c2)cc(C(=O)NCc2c(C)c3c([nH]c2=O)CCCC3)c1C)C1CCOCC1
IC50 [1]: 33 nM

CCN(c1cc(/C=C/c2ccc(CN3C[C@@H]4C[C@H]3CO4)c(F)c2)cc(C(=O)NCc2c3c(c(C)[nH]c2=O)CCCC3)c1C)C1CCOCC1
IC50 [1]: 56 nM

CCN(c1cc(/C=C/c2ccc(N3CCOCC3)nc2)cc(C(=O)NCc2c(C)c3c([nH]c2=O)CCCC3)c1C)C1CCOCC1
IC50 [1]: 114 nM

CCN(c1cc(/C=C/c2ccc(/C=C/C(=O)OC)cc2)cc(C(=O)NCc2c(C)c3c([nH]c2=O)CCCC3)c1C)C1CCOCC1
IC50 [1]: > 1000 nM

CCN(c1cc(/C=C/c2ccc(CN3CCOCC3)cc2)cc(C(=O)NCc2c3c(c(C)[nH]c2=O)CCCC3)c1C)C1CCOCC1
IC50 [1]: 27 nM

CCN(c1cc(/C=C/c2ccc3c(c2)NC(=O)CO3)cc(C(=O)NCc2c3c(c(C)[nH]c2=O)CCCC3)c1C)C1CCOCC1
IC50 [1]: 44 nM

CCN(c1cc(/C=C/c2ccc(S(=O)(=O)N3CCOCC3)cc2)cc(C(=O)NCc2c(C)c3c([nH]c2=O)CCCC3)c1C)C1CCOCC1
IC50 [1]: 225 nM

CCN(c1cc(/C=C/c2cccc(CN(C)C)c2)cc(C(=O)NCc2c(C)c3c([nH]c2=O)CCCC3)c1C)C1CCOCC1
IC50 [1]: 35 nM

CCN(c1cc(/C=C/c2cccc(CN3CCOCC3)c2)cc(C(=O)NCc2c(C)c3c([nH]c2=O)CCCC3)c1C)C1CCOCC1
IC50 [1]: > 200 nM

CCN(c1cc(/C=C/c2ccc(CN3C[C@H]4C[C@@H]3CO4)c(F)c2)cc(C(=O)NCc2c3c(c(C)[nH]c2=O)CCCC3)c1C)C1CCOCC1
IC50 [1]: 60 nM

CCN(c1cc(/C=C/c2ccc(CN3CCOCC3)cc2)cc(C(=O)NCc2c(C)c3c([nH]c2=O)CCCC3)c1C)C1CCOCC1
IC50 [1]: > 200 nM

CCN(c1cc(/C=C/c2ccc(CN3CCN(C)CC3)cc2)cc(C(=O)NCc2c3c(c(C)[nH]c2=O)CCCC3)c1C)C1CCOCC1
IC50 [1]: 31 nM

CCN(c1cc(/C=C/c2ccc(N3CCOCC3)nc2)cc(C(=O)NCc2c3c(c(C)[nH]c2=O)CCCC3)c1C)C1CCOCC1
IC50 [1]: 23 nM

CCN(c1cc(/C=C/c2ccc(CN3C[C@H]4C[C@@H]3CO4)c(F)c2)cc(C(=O)NCc2c(C)c3c([nH]c2=O)CCCC3)c1C)C1CCOCC1
IC50 [1]: 329 nM

CCN(c1cc(/C=C/c2ccc(CN3C[C@@H](C)O[C@@H](C)C3)c(F)c2)cc(C(=O)NCc2c3c(c(C)[nH]c2=O)CCCC3)c1C)C1CCOCC1
IC50 [1]: 7.8 nM

CCN(c1cc(/C=C/c2ccc(CN3C[C@@H](C)O[C@@H](C)C3)cc2)cc(C(=O)NCc2c3c(c(C)[nH]c2=O)CCCC3)c1C)C1CCOCC1
IC50 [1]: 110 nM

CCN(c1cc(/C=C/c2ccc3c(c2)NC(=O)CO3)cc(C(=O)NCc2c(C)c3c([nH]c2=O)CCCC3)c1C)C1CCOCC1
IC50 [1]: 189 nM

CCN(c1cc(/C=C/c2ccc(S(=O)(=O)N3CCOCC3)cc2)cc(C(=O)NCc2c3c(c(C)[nH]c2=O)CCCC3)c1C)C1CCOCC1
IC50 [1]: 137 nM

CCN(c1cc(/C=C/c2ccc(CN3C[C@@H]4C[C@H]3CO4)c(F)c2)cc(C(=O)NCc2c(C)c3c([nH]c2=O)CCCC3)c1C)C1CCOCC1
IC50 [1]: 161 nM
